Laboratory results published in US3965109A, “Certain aryl amino pyridines” (priority 1971, dated 1976).

Assays:
Format in all cases: in vivo
[1] = tested on: larvae of the blowfly (Lucilia serrata); assay: Insecticidal test on blowfly larvae on treated filter paper; details: scale of 1 to 6; filter paper with horse serum
[2] = tested on: Pieris brassicae (cabbage white caterpillars); assay: Pest toxicity test; parameters: key to the marks not given beside the values; details: 0.1% by weight, 2 days
[3] = tested on: Plutella maculipennis (diamond back moth larvae); assay: Pest toxicity test; parameters: key to the marks not given beside the values; details: 0.1% by weight; mustard/paper; 2 days

O=[N+]([O-])c1cc([N+](=O)[O-])c(Nc2c(Cl)c(F)nc(F)c2Cl)c([N+](=O)[O-])c1
Activity relative to lindane [1]: 5
antifeeding effect [2]: A
antifeeding effect [3]: A

O=[N+]([O-])c1cc([N+](=O)[O-])c(Nc2c(F)c(F)nc(F)c2F)c([N+](=O)[O-])c1
Activity relative to lindane [1]: 5
